The list shows a part of the results, in another mix than the full data. Activity calls are given as the source filed them. Cut-off read from the data, not from the text of the source: active = activity change below about -30%; inconclusive = mostly about -25% to -30%; inactive = weaker than that.

The test deals with L-lactate dehydrogenase A chain (Homo sapiens) (UniProt P00338). The test is described as follows: qHTS assay for inhibitors of human lactate dehydrogenase.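 Note: values are at about 110 or 230 µM; plate controls were DMSO wells for no effect and wells without enzyme for full effect.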 The following applies: purified LDHA, NADH/diaphorase-resazurin fluorescence; hits give low values. The source says: LDH is a key glycolytic enzyme that catalyzes the final step in the glycolytic pathway, reducing pyruvate to lactate and regenerating NAD+ equivalents necessary for continued glycolysis. LDHA has been linked to the carcinogenesis and malignancy in numerous forms of cancers and many other diseases. Consequently, both pharma and academia have invested in significant research efforts to identify small molecule therapeutics. Such attempts have been stalled or abandoned due to limited success in discovering potent and drug-like inhibitors that can be utilized to validate LDHA in vivo as a drug target, a necessary step toward advancing such a molecule towards the clinic Towards this goal we designed and performed a quantitative high-throughput screening (qHTS) campaign to discover novel compounds that are potent inhibitors of LDHA enzyme activity and cancer cell line growth.
The assay was optimized to 1536-well plates. Briefly, 3 µL of human lactate dehydrogenase 5 (#A38558H, Meridian Life Science, Inc., Memphis, TN) in LDH assay buffer (200 mM Tris HCl pH 7.4, 100 microM EDTA and 0.01% Tween-20) was added to a black solid bottom 1536-well assay plate (Greiner Bio-One) using a BioRAPTR FRD dispenser (Beckman Coulter, Brea, CA). A 1536-well pintool dispenser outfitted with 20 nL pins (Wako Automation, San Diego, CA) was used to transfer 23 nL of DMSO-solubilized compound (both library and vehicle controls) to each 1536-well assay plate. Following compound transfer, 1 µL of substrate solution containing NADH and sodium pyruvate (Sigma-Aldrich, St. Louis, MO) in LDH assay buffer was dispensed via BioRAPTR FRD to initiate the reaction. Final concentrations in the 4 microL reaction volume were 2 nM LDHA enzyme, 0.06 mM NADH and 0.2 mM sodium pyruvate. Following a 5 minute incubation period at room temperature, 1 µL of detection reagent (C. kluyveri diaphorase (Sigma-Aldrich) and resazurin sodium salt (Sigma-Aldrich) in LDH assay buffer) was added to a total volume of 5 µL. Final concentrations of detection reagents were 0.133 mg/mL diaphorase and 37 µM resazurin. Plates were immediately transferred to a ViewLux microplate imager (PerkinElmer, Waltham, MA), and any resulting resorufin fluorescence was measured (ex540, em590 nm) at 0 and 20 minutes. Fluorescence was normalized using enzyme-free and DMSO-treated control wells on each plate.
As for `CP(=O)(Nc1ccccc1F)Oc1ccccc1` (stereo not given), the activity change was inactive: -3.16%. With `CC(C)c1ccc(OP(C)(=O)Nc2ccc(SC(F)(F)F)cc2)cc1` (stereo not given) the figure was inactive: 8.04%; with `Cc1c([N+](=O)[O-])cc([N+](=O)[O-])c(Br)c1[N+](=O)[O-]`, inactive: -0.0948%; with `CCN(CC)CCCOC(=O)C(O)(c1ccccc1)C1CCCCC1` (stereo not given), inactive: -3.31%. For `CP(=O)(Nc1ccccc1)Oc1ccc(F)cc1` (stereo not given), the activity change is inactive: -1.89%. With `CCCCCOc1ccc(NP(C)(=O)Oc2ccc(Cl)cc2Cl)cc1` (stereo not given) the figure was inactive: 3.16%. For `CCOC(=O)c1ccc(NP(C)(=O)Oc2ccc(F)cc2)cc1` (stereo not given) the value was inactive: -3.97%; for `COc1ccc(OP(C)(=O)Nc2ccc(SC(F)(F)F)cc2)cc1` (stereo not given), inactive: 0.904%.

For the compound `CP(=O)(OCCOc1ccccc1)OCCOc1ccccc1`, the activity change is inactive: -18.1%.

As for `CP(=O)(Nc1ccc(Cl)cc1Cl)Oc1ccccc1` (stereo not given), the activity change is inactive: -9.81%. For `CCCCCCCCCCCCCCCC1C[N+](C)(C)CCOP(C)(=O)O1` (stereo not given) the value was inactive: 2.57%; for `Cc1cc(C)cc(OP(C)(=O)Nc2cccc(C(F)(F)F)c2)c1` (stereo not given), inactive: 5.42%; for `COc1ccccc1OP(C)(=O)Nc1ccc(C)c(C)c1` (stereo not given), inactive: -4.2%. For `COc1ccc(OP(C)(=O)Nc2ccccc2Br)cc1` (stereo not given) the value was inactive: -3.63%; for `O=[N+]([O-])c1cc([N+](=O)[O-])c(Nc2ccccn2)c([N+](=O)[O-])c1`, inactive: 35.4%. `Cc1c(NP(C)(=O)Oc2ccc(C(C)C)cc2)c(=O)n(-c2ccccc2)n1C` (stereo not given): the activity change was inactive: 0.0115%. With `COc1ccccc1OP(C)(=O)Nc1ccc(C)cc1C` (stereo not given) the figure was inactive: -15%. With `CP(=O)(Nc1ccccn1)Oc1ccccc1` (stereo not given), the activity change is inactive: -6.98%. Regarding `CCc1ccc(OP(C)(=O)O)cc1`, the activity change was inactive: -8.38%. For `COc1ccccc1OP(C)(=O)Nc1ccc(Br)cc1` (stereo not given) the value was inactive: -2.82%. As for `COc1ccc(OP(C)(=O)Nc2ccccn2)cc1` (stereo not given), the activity change was inactive: -0.783%. With `CN(C)CCOC(=O)C(O)(c1ccccc1)C1CCCC1` (stereo not given) the figure was inactive: -1.26%; with `CC(C)(C)c1ccc(OP(C)(=O)O)cc1`, inactive: 2.39%; with `COc1ccccc1OP(C)(=O)Nc1ccccc1Br` (stereo not given), inactive: 0.768%. For `CP(=O)(Nc1ccc(Cl)cc1)Oc1ccc(F)cc1` (stereo not given) the value was inactive: 2.97%; for `CN(C)C(=O)c1c([N+](=O)[O-])cc([N+](=O)[O-])cc1[N+](=O)[O-]`, inactive: 13.3%; for `COc1ccc(OP(C)(=O)Nc2ccc(Br)cc2)cc1` (stereo not given), inactive: 1.43%. With `CCN(CC)CC(O)COC(=O)C(O)(c1ccccc1)C1CCCCC1` (stereo not given) the figure was inactive: -7.43%. Take `O=C(OCCCN1CCCC1)C(O)(c1ccccc1)C1CCCCC1` (stereo not given): the activity change is inactive: -4.5%. Turning to `COc1ccccc1OP(C)(=O)Nc1c(C)n(C)n(-c2ccccc2)c1=O` (stereo not given), the activity change is inactive: -7.24%. Turning to `CCc1ccc(OP(C)(=O)Nc2cccnc2)cc1` (stereo not given), the activity change was inactive: 0.708%. Take `CP(=O)(Oc1ccccc1)N1CCOC1=O` (stereo not given): the activity change is inactive: -4.45%. With `Nc1ccc2c(ccc3cccnc32)n1.O=[N+]([O-])c1cc([N+](=O)[O-])c(O)c([N+](=O)[O-])c1` the figure was inactive: -3.39%; with `CCOC(=O)c1ccc(NP(C)(=O)Oc2ccc(Cl)cc2)cc1` (stereo not given), inactive: 3%; with `CP(=O)(OC12CC3CC(CC(C3)C1)C2)OC12CC3CC(CC(C3)C1)C2`, inactive: 6.18%.

The values above are taken from PubChem BioAssay AID1347041 (National Center for Advancing Translational Sciences (NCATS), 2019).
